One assay addresses rat TAAR1 (Rattus norvegicus (Rat), UniProt Q923Y9). The assay can be described thus: Radioligand binding assay on rat TAAR1. Conditions: read-out: Ki (μM) rat; rat TAAR1, HEK-293 membranes; second value of mouse/rat cell; tested form: HCl.
The next assay has as its target mouse TAAR1 (Mus musculus (Mouse), UniProt Q923Y8). The assay can be described thus: Radioligand binding assay on mouse TAAR1. Conditions: read-out: Ki (μM) mouse; mouse TAAR1, HEK-293 membranes; first value of mouse/rat cell; tested form: HCl.

Amino acid sequences for entries named in this document (tags omitted).
UniProt Q923Y9, whole entry: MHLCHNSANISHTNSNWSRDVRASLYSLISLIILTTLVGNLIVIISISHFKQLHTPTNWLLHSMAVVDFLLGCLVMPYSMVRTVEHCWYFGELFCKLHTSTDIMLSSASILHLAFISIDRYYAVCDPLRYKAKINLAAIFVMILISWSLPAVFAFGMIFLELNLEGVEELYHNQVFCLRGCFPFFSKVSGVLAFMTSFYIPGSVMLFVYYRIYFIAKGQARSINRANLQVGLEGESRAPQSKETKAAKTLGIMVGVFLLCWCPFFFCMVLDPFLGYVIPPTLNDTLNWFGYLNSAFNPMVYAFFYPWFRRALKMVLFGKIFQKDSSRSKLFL
UniProt Q923Y8, whole entry: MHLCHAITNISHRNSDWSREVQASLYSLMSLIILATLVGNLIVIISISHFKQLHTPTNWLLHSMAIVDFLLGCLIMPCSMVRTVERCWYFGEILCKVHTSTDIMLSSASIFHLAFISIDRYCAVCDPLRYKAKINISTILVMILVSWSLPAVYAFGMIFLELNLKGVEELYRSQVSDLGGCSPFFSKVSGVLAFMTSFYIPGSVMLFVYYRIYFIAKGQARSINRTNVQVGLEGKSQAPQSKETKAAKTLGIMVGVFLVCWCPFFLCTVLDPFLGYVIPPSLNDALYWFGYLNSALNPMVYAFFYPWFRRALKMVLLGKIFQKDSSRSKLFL

Turning to `O=C(Nc1ccc([C@H]2CNCCO2)cc1)c1cn(-c2cccc(F)c2)nn1`, the Ki on rat TAAR1 came out at 0.0211 µM; at mouse TAAR1 it was 0.0029 µM.

As to `O=C(Nc1ccc([C@H]2CNCCO2)cc1)c1cn(-c2ccc(OC(F)(F)F)cc2)nn1`, the values for the Ki on rat TAAR1 and at mouse TAAR1 were 0.0032 µM and 0.0004 µM, respectively.

In the case of `O=C(Nc1ccc([C@H]2CNCCO2)cc1)c1cn(-c2ccc(OC(F)F)cc2)nn1`, the inhibitory constant (Ki) at rat TAAR1 came to 0.0268 µM; at mouse TAAR1 it was 0.0015 µM.

Take `O=C(Nc1ccc([C@H]2CNCCO2)cc1)c1cn(-c2ccc(F)cc2)nn1`: the Ki on rat TAAR1 was 0.0342 µM; on mouse TAAR1, 0.0023 µM.

The term Ki denotes a measure of affinity in units of concentration, obtained from inhibition or displacement.

These data come from patent US9416127B2, “Triazole carboxamides and uses thereof” (Hoffmann-La Roche Inc., priority 2012, dated 2016).
